Test results as given in PubChem BioAssay AID485273 (Sanford-Burnham Center for Chemical Genomics, 2010).
This is a selection; strong and weak results do not stand in their true shares. Some structures show a salt or complex split into parts, the way the source records it. Activity calls are given as the source filed them. No stated cut-off is given here; in the data, active means inhibition above about 45% (passing the limit was not always enough); inconclusive means no clear call, values can overlap the other calls.

Protein sequences, listed by entry. Tags and fused reporters are not part of them.
UniProt P61088, whole entry, looked up: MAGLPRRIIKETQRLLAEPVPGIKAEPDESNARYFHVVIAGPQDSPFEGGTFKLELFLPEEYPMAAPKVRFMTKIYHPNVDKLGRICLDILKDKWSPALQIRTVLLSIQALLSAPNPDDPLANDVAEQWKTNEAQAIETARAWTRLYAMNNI

What follows are molecules tested against Ubiquitin-conjugating enzyme E2 N (Homo sapiens) (UniProt P61088) (assay: blockers of UBC13 ubiquitin chain synthesis – biochemical, TR-FRET, uHTS, primary screen (AID 485273)). Conditions: UBC13 polyubiquitin chain formation, at 20 µM, stronger effect = higher value.

**Q.** With `CC1=C2N=C(C=C3N=C(C(C)=C4[N-][C@@](C)([C@@H]5N=C1[C@](C)(CCC(=O)NC[C@@H](C)OP(=O)([O-])O[C@H]1[C@@H](O)[C@@H](n6cnc7cc(C)c(C)cc76)O[C@@H]1CO)[C@H]5CC(N)=O)[C@@](C)(CC(N)=O)[C@@H]4CCC(N)=O)[C@@](C)(CC(N)=O)[C@@H]3CCC(N)=O)C(C)(C)[C@@H]2CCC(N)=O.[C-]#N.[Co+3]` as the molecule, how does the inhibition read?
**A.** inactive: -110%

**Q.** With `O=[N+]([O-])c1cc([N+](=O)[O-])c(Nc2nnnn2CCO)c([N+](=O)[O-])c1` as the molecule, how does the inhibition read?
**A.** inactive: -60.9%

**Q.** With `O=[N+]([O-])c1cc([N+](=O)[O-])c(-c2cnn(-c3ccccc3)c2)c([N+](=O)[O-])c1` as the molecule, how does the inhibition read?
**A.** inactive: -5.5%

**Q.** For `Cc1nc2ccc3ccccc3c2s1.O=[N+]([O-])c1cc([N+](=O)[O-])c(O)c([N+](=O)[O-])c1`, which inhibition is on record?
**A.** inactive: -15.3%

**Q.** Which inhibition does the source give for `O=[N+]([O-])c1cc([N+](=O)[O-])c(-n2nnc3ccccc32)c([N+](=O)[O-])c1` here?
**A.** inactive: -23.7%

**Q.** For `Cc1ccc(C)c(NP(C)(=O)Oc2ccccc2)c1` (centres undefined), which inhibition is on record?
**A.** inactive: -6.2%

**Q.** Which inhibition does the source give for `Cc1cc(C)cc(OP(C)(=O)Nc2ccccn2)c1` (centres undefined) here?
**A.** inactive: 7.3%

**Q.** Which inhibition does the source give for `CP(=O)(Nc1cccc(Br)c1)Oc1ccccc1` (centres undefined) here?
**A.** inactive: 3.4%

**Q.** How did the inhibition turn out when `COc1ccccc1OP(C)(=O)Nc1cccc(Br)c1` (centres undefined) was run?
**A.** inactive: 9.4%

**Q.** For `CCOC(=O)c1ccc(NP(C)(=O)Oc2cc(C)cc(C)c2)cc1` (centres undefined), which inhibition is on record?
**A.** inactive: 1.8%

**Q.** Which inhibition does the source give for `Cc1cc(C)cc(OP(C)(=O)Nc2ccc(C)cc2C)c1` (centres undefined) here?
**A.** inactive: -4.8%

**Q.** How did the inhibition turn out when `CC1=NCCc2c1[nH]c1ccccc21.O=[N+]([O-])c1cc([N+](=O)[O-])c(O)c([N+](=O)[O-])c1` was run?
**A.** inactive: -3.3%

**Q.** `O=C(O)c1cccc(Nc2c([N+](=O)[O-])cc([N+](=O)[O-])cc2[N+](=O)[O-])c1` was tested. Which inhibition did it give?
**A.** inactive: -36.3%

**Q.** Which inhibition does the source give for `CCN(CC)CCCOC(=O)C(O)(c1ccccc1)C1CCCCC1` (centres undefined) here?
**A.** inactive: 13%

**Q.** `CP(=O)(Nc1ccccc1)Oc1ccc(F)cc1` (centres undefined) was tested. Which inhibition did it give?
**A.** inactive: -6.7%

**Q.** For `O=[N+]([O-])c1cc([N+](=O)[O-])c(OC2CCCCC2O)c([N+](=O)[O-])c1` (centres undefined), which inhibition is on record?
**A.** inactive: -11.4%

**Q.** How did the inhibition turn out when `CCCCCOc1ccc(NP(C)(=O)Oc2ccc(Cl)cc2Cl)cc1` (centres undefined) was run?
**A.** inactive: 12.7%

**Q.** `CCOC(=O)c1ccc(NP(C)(=O)Oc2ccc(F)cc2)cc1` (centres undefined) was tested. Which inhibition did it give?
**A.** inactive: 5.6%

**Q.** `COc1ccc(OP(C)(=O)Nc2ccc(SC(F)(F)F)cc2)cc1` (centres undefined) was tested. Which inhibition did it give?
**A.** inactive: 10.9%

**Q.** `O=C(OC1CN2CCC1CC2)c1ccc([N+](=O)[O-])cc1` (centres undefined) was tested. Which inhibition did it give?
**A.** inactive: -6.2%

**Q.** How did the inhibition turn out when `O=C(OCCN1CCN(CCOCc2ccccc2)CC1)C(O)(c1ccccc1)c1ccccc1` was run?
**A.** inactive: 6.4%

**Q.** With `COc1ccc2c(c1O)-c1c(O)c(OC)cc3c1[C@H](C2)[N+](C)(C)CC3.O=[N+]([O-])c1cc([N+](=O)[O-])c([O-])c([N+](=O)[O-])c1[O-]` as the molecule, how does the inhibition read?
**A.** inactive: -31.4%

**Q.** Which inhibition does the source give for `CP(=O)(Nc1ccccc1F)Oc1ccccc1` (centres undefined) here?
**A.** inactive: 3.4%

**Q.** How did the inhibition turn out when `CC(C)c1ccc(OP(C)(=O)Nc2ccc(SC(F)(F)F)cc2)cc1` (centres undefined) was run?
**A.** inactive: 3.4%

**Q.** How did the inhibition turn out when `CP(=O)(Nc1ccc2c(c1)OCCO2)Oc1ccccc1` (centres undefined) was run?
**A.** inactive: 1%

**Q.** Which inhibition does the source give for `Cc1ccccc1NP(C)(=O)Nc1ccccc1C` here?
**A.** inactive: -10.1%

**Q.** How did the inhibition turn out when `CP(=O)(Nc1ccc(SC(F)(F)F)cc1)Oc1ccc(F)cc1` (centres undefined) was run?
**A.** inactive: 3.8%

**Q.** How did the inhibition turn out when `CCOP(C)(=S)SCC(=O)NC(C)(CC)C(=O)O` (centres undefined) was run?
**A.** inactive: 12.5%

**Q.** For `O=[N+]([O-])c1cc([N+](=O)[O-])c(NCC2CCS(=O)(=O)C2)c([N+](=O)[O-])c1` (centres undefined), which inhibition is on record?
**A.** inactive: -20.6%

**Q.** For `COc1ccc(OP(C)(=O)Nc2cccc(Br)c2)cc1` (centres undefined), which inhibition is on record?
**A.** inactive: 6%

**Q.** `CN(C)CCOC(=O)C(O)(c1ccccc1)C1CCCCC1` (centres undefined) was tested. Which inhibition did it give?
**A.** inactive: 4.1%

**Q.** With `COc1ccc(NP(C)(=O)Oc2ccccc2OC)cc1` (centres undefined) as the molecule, how does the inhibition read?
**A.** inactive: 3.7%

**Q.** `Nc1ccc2c(ccc3cccnc32)n1.O=[N+]([O-])c1cc([N+](=O)[O-])c(O)c([N+](=O)[O-])c1` was tested. Which inhibition did it give?
**A.** inactive: 0.5%

**Q.** Which inhibition does the source give for `CCOC(=O)c1ccc(NP(C)(=O)Oc2ccc(Cl)cc2)cc1` (centres undefined) here?
**A.** inactive: 14.9%

**Q.** For `CP(=O)(OC12CC3CC(CC(C3)C1)C2)OC12CC3CC(CC(C3)C1)C2`, which inhibition is on record?
**A.** inactive: -1.4%

**Q.** `COc1ccccc1OP(C)(=O)Nc1ccccc1Br` (centres undefined) was tested. Which inhibition did it give?
**A.** inactive: -1.7%

**Q.** `CC(C)(C)c1ccc(OP(C)(=O)O)cc1` was tested. Which inhibition did it give?
**A.** inactive: -0.9%

**Q.** Which inhibition does the source give for `CP(=O)(Nc1ccc(Cl)cc1)Oc1ccc(F)cc1` (centres undefined) here?
**A.** inactive: -4.2%

**Q.** For `CN(C)C(=O)c1c([N+](=O)[O-])cc([N+](=O)[O-])cc1[N+](=O)[O-]`, which inhibition is on record?
**A.** inactive: -4.1%

**Q.** `COc1ccc(OP(C)(=O)Nc2ccc(Br)cc2)cc1` (centres undefined) was tested. Which inhibition did it give?
**A.** inactive: 4.9%

**Q.** `CCN(CC)CC(O)COC(=O)C(O)(c1ccccc1)C1CCCCC1` (centres undefined) was tested. Which inhibition did it give?
**A.** inactive: 9.5%

**Q.** For `O=C(OCCCN1CCCC1)C(O)(c1ccccc1)C1CCCCC1` (centres undefined), which inhibition is on record?
**A.** inactive: 10.6%

**Q.** `COc1ccccc1OP(C)(=O)Nc1c(C)n(C)n(-c2ccccc2)c1=O` (centres undefined) was tested. Which inhibition did it give?
**A.** inactive: 3.3%

**Q.** With `CCc1ccc(OP(C)(=O)Nc2cccnc2)cc1` (centres undefined) as the molecule, how does the inhibition read?
**A.** inactive: 18.5%

**Q.** With `CP(=O)(Oc1ccccc1)N1CCOC1=O` (centres undefined) as the molecule, how does the inhibition read?
**A.** inactive: -0.6%

**Q.** `Cc1c(NP(C)(=O)Oc2ccc(C(C)C)cc2)c(=O)n(-c2ccccc2)n1C` (centres undefined) was tested. Which inhibition did it give?
**A.** inactive: -0.6%

**Q.** Which inhibition does the source give for `O=[N+]([O-])c1cc([N+](=O)[O-])c(Nc2ccccn2)c([N+](=O)[O-])c1` here?
**A.** inactive: -25.1%

**Q.** How did the inhibition turn out when `COc1ccccc1OP(C)(=O)Nc1ccc(C)cc1C` (centres undefined) was run?
**A.** inactive: -1.8%

**Q.** With `CP(=O)(Nc1ccccn1)Oc1ccccc1` (centres undefined) as the molecule, how does the inhibition read?
**A.** inactive: -0.1%

**Q.** `CCc1ccc(OP(C)(=O)O)cc1` was tested. Which inhibition did it give?
**A.** inactive: 0.5%

**Q.** With `COc1ccccc1OP(C)(=O)Nc1ccc(Br)cc1` (centres undefined) as the molecule, how does the inhibition read?
**A.** inactive: -2.5%

**Q.** For `COc1ccc(OP(C)(=O)Nc2ccccn2)cc1` (centres undefined), which inhibition is on record?
**A.** inactive: 4.6%

**Q.** Which inhibition does the source give for `CN(C)CCOC(=O)C(O)(c1ccccc1)C1CCCC1` (centres undefined) here?
**A.** inactive: -2.1%

**Q.** How did the inhibition turn out when `Cc1nc2ccc3ccccc3c2o1.O=[N+]([O-])c1cc([N+](=O)[O-])c(O)c([N+](=O)[O-])c1` was run?
**A.** inactive: -21.9%

**Q.** For `CP(=O)(Nc1ccc(Cl)cc1Cl)Oc1ccccc1` (centres undefined), which inhibition is on record?
**A.** inactive: -12.5%

**Q.** With `CP(=O)(OCCOc1ccccc1)OCCOc1ccccc1` as the molecule, how does the inhibition read?
**A.** inactive: -7.2%

**Q.** Which inhibition does the source give for `Cc1cc(C)cc(OP(C)(=O)Nc2cccc(C(F)(F)F)c2)c1` (centres undefined) here?
**A.** inactive: 8.9%

**Q.** For `COc1ccccc1OP(C)(=O)Nc1ccc(C)c(C)c1` (centres undefined), which inhibition is on record?
**A.** inactive: 5.3%

**Q.** `COc1ccc(OP(C)(=O)Nc2ccccc2Br)cc1` (centres undefined) was tested. Which inhibition did it give?
**A.** inactive: 0.2%
